Measured affinities in a library of Ab-14 light chain variants

The target is the same throughout: PDVDLGDISGINAS, from the HR2 region of SARS-CoV-2 spike.

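Designed CDR sequences, proposed from the first random library and measured here. Several design methods are mixed in this list. The scFvs were displayed on barcoded MATa yeast, the peptide on MATalpha yeast. Pairs that bind mate more often; barcode pairs of the diploids are counted by sequencing. Scores were corrected for input abundance and mapped to Kd with protein pairs of known affinity run in the same pool. Each pool was mated in six replicate cultures.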

Parent scFv Ab-14: VH joined to VL by a (GGGGS)3 linker. Changes lie in the light chain CDRs alone.
VH: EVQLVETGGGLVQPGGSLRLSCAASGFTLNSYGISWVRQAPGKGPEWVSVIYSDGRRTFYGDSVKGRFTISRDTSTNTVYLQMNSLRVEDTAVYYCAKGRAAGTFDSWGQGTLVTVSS
VL: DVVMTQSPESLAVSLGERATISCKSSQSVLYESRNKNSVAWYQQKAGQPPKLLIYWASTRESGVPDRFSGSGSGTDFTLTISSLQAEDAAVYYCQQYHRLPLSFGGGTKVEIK

Each variant is given by its three light chain CDRs, as the data file delimits them; those of the parent are KSSQSVLYESRNKNSVA, WASTRES, QQYHRLPLS. The read-out is the apparent dissociation constant on a log10 scale (nM): the lower, the stronger. The mean shown is taken over the replicates in which the pair was detected. An entry "nd" has no value in the source: the pair was not observed among the diploids in any replicate. This suggests poor binding but is not conclusive. The range of this assay differs from that of the first round, and the authors advise against merging the two.

CDR-L1 | CDR-L2 | CDR-L3 | mean, log10 nM | seen in
KSSQSGLYEERNKNSVA | WASTRFS | QQYHRLPLS | 1.86 | 5/6
MLSEVLHMLGVKKNSIA | DLVIRAN | QQYHRLPLQ | 2.05 | 2/6
KSSQSVPYESENANSVA | WASTRES | QQYHRLELP | 1.83 | 1/6
HITYGMMVAGRHSKSIA | QAETRAK | QQYDRLPLI | 1.56 | 6/6
NLSIQREHQNMDAYAVA | QTEIREV | QQYAILPLA | 1.86 | 4/6
KLMQSVMYESRNKNSVA | NASTRES | QQYHRLPLS | 0.20 | 6/6
KSSQEVSYESRNKNSVA | DASTRES | QQYHRLPLS | 0.51 | 6/6
KLTQTMRFEQKKKNNIA | EVTERTK | QQYYRLPLA | 1.07 | 6/6
KSSQSGTYESRWKNSVA | QASTREE | QQYHRLPLS | 0.37 | 6/6
KSSQSVLYESNNKHSVA | WASTRES | QQYHRLPLS | 1.57 | 6/6
KLSWSELYESRNKNSVA | EASQRES | QQYHRLPLS | -0.10 | 6/6
FIMHFGEESNLNSKNIA | AKDTRVD | QQYNRLPLS | -0.04 | 6/6
KLSQVTNSEHKVSNSIA | EMVTREK | QQYDRLPLS | 2.19 | 1/6
HMSQVTMYGYWQKNSVA | QTSTREE | QQYDRLPLS | 0.85 | 6/6
KSSLSQLGESRNKNSVA | WASTRES | QQPHYLPLS | nd | 0/6
FLTYAQDQTGLQGNAIA | QVNLKEN | QQYMRLPLA | 2.38 | 1/6
KSSQSVGYESRNKNQVA | WASTRES | QQYARLPLS | 1.67 | 6/6
TLSQMWGMESRHKNNVA | QESTREK | QQYFRLPIS | 0.55 | 6/6
KFSQSWLYESRNKNSVA | NASYRES | QQYHRLPLS | -0.40 | 6/6
KSSFSLLYESRNLNSVA | WASTRES | QQYHRLPLS | 1.64 | 6/6
KSSPSMLYEERMDNSVA | NASQRES | QQYHRLPLS | 0.19 | 6/6
KIGMTLNMMMHSKNNVA | DLVTREN | QQYHRLPLS | 1.07 | 6/6
KSSQSWLYESRNFQSVA | GASTRES | QQYHRLPLS | 0.07 | 6/6
ALSQSMDMTSRNKNSVA | DLSTRCN | QQYHRLPLS | -0.29 | 6/6
KFQQSELYESRNKNSVA | NASQRES | QQYHRLPLS | -0.25 | 6/6
HLSQSWLYESRNKNSVA | NASTRES | QQYHRLPLS | -0.42 | 6/6
IVSQLMLWGKSAKNSIA | EAVTRLN | QQYDRLPLF | 1.18 | 6/6
KILQSVLYESRDKNSVA | HASTRED | QQYHRLPLS | -0.03 | 6/6
KFSQMVNSMSVSHSAVA | EMSTREN | QQYNRLPLS | 0.30 | 6/6
KFSQSVLYESRDKNSVA | NASTRES | QQYHRLPLS | -0.11 | 6/6
KSSISYLYESRNLNSVA | EASTREQ | QQYHRLPLS | 0.32 | 6/6
KLRQSTLYESRNKNSVA | KASTRES | QQYHRLPLS | 0.93 | 6/6
KLSQSVLQLWRNKNNVA | QASHRES | QQYHRLPLS | 0.26 | 6/6
KLVNFMNRGTHHTSNIA | DAQNRID | QQYFRLPLA | -0.01 | 6/6
RIDPYEAMLGKNKESIA | EAAVTLT | QQYARLPLS | 0.45 | 1/6
KSQQSFLYESRNFNSVA | EASTRES | QQYHRLPLS | 0.18 | 6/6
HISYSMQHLSKNKNSVA | NQQTRES | QQYHMLPLS | 1.22 | 6/6

Further variants, results first:

mean, log10 nM | seen in | CDR-L1 | CDR-L2 | CDR-L3
1.44 | 1/6 | KVSIFMLTMDNAWSSIA | NSAATRT | QYYQRLPLS
0.71 | 6/6 | KGSQSVLYESRNKNSVA | AASTRES | QQYHRLPLS
1.54 | 6/6 | KVSQFMRGLTQRKDSIA | DNNTRGS | QQYDRLPLS
-0.24 | 6/6 | KSSIGWLEESRNKNSVA | EASTRES | QQYHRLPLS
0.36 | 6/6 | HLSQSQLYESRNKNSVA | NASQRES | QQYHRLPLS
0.03 | 6/6 | KSSGMDLYESRNGNSVA | DASTRSS | QQYHRLPLS
1.09 | 6/6 | KLSQSWLYESRVKNNVA | DAHQRES | QMYHRLPLS
1.56 | 6/6 | KFSQSVLYESRNKNSVA | MASTRES | QAYHRLPLS
1.70 | 6/6 | TVTQMAMTGMKNKRSVA | NATTREP | QQYHRLPLI
0.91 | 6/6 | KVSGLVNFFGHAINSVA | EMETREN | QQYDRLPLS
0.58 | 5/6 | QISMNLEIYDQEQWAVA | HGEMRTE | QQYHKLPLS
1.20 | 5/6 | KISQMTRVGMTHSNSIA | EEVVRAK | QQYHRLPLA
0.05 | 6/6 | KSSISYLYESLNKNSVA | AASTRES | QQYHRLPLS
1.19 | 6/6 | MITEGLLGENKNSSNIA | SQNIKTA | QQYQRLPLT
0.74 | 6/6 | KLQNFSQEPNGMWNNIA | DMTMKHT | QQYNRLPLV
-0.01 | 6/6 | KWEQSVMGESVNKNSVA | NASTRES | QQYHRLPLS
2.48 | 6/6 | KSSLSWLYESYNSNSVA | EASTRES | QQYHRLPLD
0.18 | 6/6 | KVSQSVCYEDRLKNNVA | NASDRMS | QQYHRLPLS
0.17 | 6/6 | KFSPSVLYESRHKNSVA | NASTRES | QQYHRLPLS
1.45 | 6/6 | KLMDNPWVEDKYRNNIA | DIETKAI | QHYHRLPLL
nd | 0/6 | KSSQSVLYESQNKNSVA | WASTRES | QQYHRLPLS
nd | 0/6 | KSSQSVLYESRNKNSVA | WASTRES | QAYPRLPLS
0.03 | 6/6 | KSGQGVLYESRNKNSVA | GASTRES | QQYHRLPLI
2.98 | 2/6 | KLSEFMRGLMGRKDSIA | DNTTRGS | QQYDRLPLS
2.36 | 4/6 | RLSASQGIQSVMRNSVA | QNSTREE | QQYDHLPLS
-0.35 | 6/6 | KLEQSDLYESRNKNSVA | NASTREQ | QQYHRLPLS
-0.37 | 6/6 | KLSGSMLYESRNKNAVA | EASTRES | QQYHRLPLS
0.26 | 6/6 | KLSMITGHMHMSKNNVA | EMVTRAN | QQYDRLPLA
0.57 | 6/6 | RMEWHMSGATEAKNSMA | GVEHRAN | QQYDRLPLE
0.30 | 6/6 | KSSVSGLYESRMKNSVA | EASTRES | QQYHRLPLS
0.12 | 6/6 | KLDQSELYESRNKQSVA | NASQRCS | QQYHRLPLS
1.72 | 6/6 | QMKMSLLQGIYIKDSIA | SSDIREM | QQYEHLPLI
1.83 | 6/6 | MISQLINMGSFAINSVA | QASIRCN | QQYDRLPLM
nd | 0/6 | KMSYSDAYESRNKNGVA | WASTRES | QQYHRLYLS
-0.06 | 6/6 | KLSQSWGYESRNKNNVA | NASTRES | QQYHRLPLS
-0.12 | 6/6 | KLSQSQLYESRNKNSVA | NASTREV | QQYHRLPLS
-0.22 | 6/6 | KFSQQVLYESRTKNSVA | NASTRES | QQYHRLPLS
1.30 | 6/6 | KSLQSWWYESRNKNSVA | HASTREQ | QQYHRLPLS

The first 4 variants above that were never detected:

CDR-L1	CDR-L2	CDR-L3	mean, log10 nM	seen in
KSSLSQLGESRNKNSVA	WASTRES	QQPHYLPLS	nd	0/6
KSSQSVLYESQNKNSVA	WASTRES	QQYHRLPLS	nd	0/6
KSSQSVLYESRNKNSVA	WASTRES	QAYPRLPLS	nd	0/6
KMSYSDAYESRNKNGVA	WASTRES	QQYHRLYLS	nd	0/6

Empty control strains, which show no peptide, gave a signal in 4% of pairings with all light chain designs; the median was 2.64 and 95% of these signals were weaker than 1.59. No background was subtracted. The authors' rule: three or more of the six replicates give a measured affinity, fewer mean a poor binder.

Values reported by Li et al. 2023, doi:10.1038/s41467-023-39022-2 (FLAb copy).